Results: patent US10508086B2 (CANCER RESEARCH TECHNOLOGY LIMITED, priority 2014, dated 2019)

Chains of the proteins cited; added tags and fusions are not shown.
UniProt Q86W56, whole entry: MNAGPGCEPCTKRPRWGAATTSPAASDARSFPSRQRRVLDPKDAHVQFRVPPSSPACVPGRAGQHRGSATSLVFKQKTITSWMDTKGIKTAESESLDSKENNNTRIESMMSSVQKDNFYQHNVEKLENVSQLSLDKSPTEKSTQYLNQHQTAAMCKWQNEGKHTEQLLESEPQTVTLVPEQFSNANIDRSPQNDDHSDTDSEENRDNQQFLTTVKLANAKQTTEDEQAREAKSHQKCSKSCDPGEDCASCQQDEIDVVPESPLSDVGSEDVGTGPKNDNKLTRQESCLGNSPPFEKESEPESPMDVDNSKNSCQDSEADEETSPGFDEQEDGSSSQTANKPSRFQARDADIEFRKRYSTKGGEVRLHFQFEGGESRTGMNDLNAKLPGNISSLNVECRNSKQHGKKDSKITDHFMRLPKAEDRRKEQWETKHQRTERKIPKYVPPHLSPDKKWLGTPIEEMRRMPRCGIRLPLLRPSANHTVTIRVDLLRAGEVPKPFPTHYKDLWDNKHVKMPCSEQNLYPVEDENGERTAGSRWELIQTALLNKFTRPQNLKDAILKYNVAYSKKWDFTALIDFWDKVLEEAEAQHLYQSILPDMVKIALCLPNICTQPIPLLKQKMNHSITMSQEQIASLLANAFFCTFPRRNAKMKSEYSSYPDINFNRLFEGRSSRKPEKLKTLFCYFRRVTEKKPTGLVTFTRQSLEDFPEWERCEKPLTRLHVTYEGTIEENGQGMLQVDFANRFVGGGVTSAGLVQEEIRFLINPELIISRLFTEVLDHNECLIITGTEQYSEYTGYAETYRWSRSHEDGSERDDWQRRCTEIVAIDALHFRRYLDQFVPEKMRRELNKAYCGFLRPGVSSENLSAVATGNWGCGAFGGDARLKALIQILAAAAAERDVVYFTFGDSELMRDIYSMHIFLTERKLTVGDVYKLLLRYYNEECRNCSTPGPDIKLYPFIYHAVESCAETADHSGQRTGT

Target: PARG in HeLa cell line (Homo sapiens (Human), UniProt Q86W56)
Test: PARG cell assay (nuclear PAR chains after MMS, immunofluorescence)
Conditions: read-out: PARG Cell IC50 Geomean; HeLa cells, MMS 50 μg/mL
Description: This method is based on the detection of endogenous levels of poly (ADP) ribose chains present in the nucleus of HeLa cell line using indirect immunofluorescence. MMS stimulation increases PAR chains for up to 25 mins. After that point, PARG is active and breaks down the PAR chains, until by one hour after stimulation no PAR chains are detectable. Inhibition of PARG maintains PAR chains.
Briefly, following compound treatment and treatment with the DNA damaging agent methylmethanesulfonate (MMS), the cell monolayer is fixed, then permeabilised and incubated with a mouse monoclonal antibody raised against multimers of poly(ADP) ribose. After an overnight incubation, excess antibody is removed by washing and an Alexafluor 488-linked secondary antibody which recognises the mouse monoclonal is added together with a nuclear stain (Hoechst 33342). Images of the cells are then captured and analysed on a High Content Screening platform and the total intensity of the nuclear fluorescent signal at […] is quantified.
HeLa cells, seeded in 384-well plates, at 4000/well in 30 μL RPMI 1640 media, supplemented with 10% FBS and 2 mM Glutamax, were incubated overnight at 37° C., 5% CO2.
The following day, cells were dosed in quadruplicate with compound (10 point dose response) and incubated for 1 h at 37° C., 5% CO2. […]

Cc1nnc(-n2c(=O)n(Cc3cn[nH]c3)c3ccc(S(=O)(=O)NC4(C)CC4)cc32)s1
IC50: 508 nM
